Test systems include NCI-H23 lung; NCI-H226 lung; NCI-H322M lung; HOP-62 NSCLC; NCI-H460 lung; NCI-H522 lung; A549/ATCC NSCLC; 786-0 renal; COLO 205 colon; DU-145 prostate; K-562 leukemia; MALME-3M melanoma; MDA-MB-231 breast; RXF 393 renal; SF-268 CNS; SF-295 CNS; SF-539 CNS; UACC-257 melanoma; M14 melanoma; HOP-92 NSCLC.
Holding throughout (test): NCI-60 one-dose screen, 48 h (100 = growth as untreated, 0 = no growth, -100 = all killed)
What all share (conditions): 10 µM

Each structure is given as a SMILES string. The list shows a part of the results, in another mix than the full data.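 Step 1: grow cells in 96-well plates. Step 2: add test compound at a single concentration. Step 3: incubate 48 h. Step 4: record percent growth.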 Active and inactive are the calls of the source. How the source made its calls: active means growth percent below 10; inactive means the rest.

On to `O=[N+]([O-])c1ccc(Oc2c([N+](=O)[O-])cc([N+](=O)[O-])cc2[N+](=O)[O-])cc1`, for which the growth was inactive: 98.2% in the assay with NCI-H23 lung; inactive: 98.5% in the assay on NCI-H226 lung; inactive: 98.3% in the assay on NCI-H322M lung; inactive: 110% in the assay with HOP-62 NSCLC; inactive: 107% in the assay with NCI-H460 lung; inactive: 99.1% with NCI-H522 lung. The growth in the assay on A549/ATCC NSCLC was inactive: 105%; with 786-0 renal it was inactive: 105%; in the assay on COLO 205 colon, inactive: 116%; in the assay with DU-145 prostate, inactive: 104%; in the assay on K-562 leukemia, inactive: 104%; with MALME-3M melanoma it was inactive: 104%. For the same compound, the growth was inactive: 116% with MDA-MB-231 breast; inactive: 105% with RXF 393 renal; inactive: 101% in the assay with SF-268 CNS; inactive: 106% in the assay on SF-295 CNS; inactive: 97.5% in the assay on SF-539 CNS; inactive: 103% in the assay on UACC-257 melanoma. Besides, the growth with M14 melanoma was inactive: 97.4%.
In the case of `Cc1c([N+](=O)[O-])c(C)c([N+](=O)[O-])c(Nc2c([N+](=O)[O-])c(C)c([N+](=O)[O-])c(C)c2[N+](=O)[O-])c1[N+](=O)[O-]`, the growth with NCI-H23 lung was active: -25.3%; in the assay on NCI-H226 lung, active: -33.5%; in the assay on NCI-H322M lung, active: -14.3%; with HOP-62 NSCLC, active: -26.1%; in the assay with NCI-H460 lung, active: 8.44%; with HOP-92 NSCLC, active: -28%. Besides, the growth in the assay with NCI-H522 lung was active: -11.7%; with A549/ATCC NSCLC, active: 0.302%; with 786-0 renal, active: 2.97%; in the assay on COLO 205 colon, active: -65.4%; in the assay on DU-145 prostate, inactive: 39.9%; in the assay on K-562 leukemia, active: 4.5%. Also, the growth was active: -37.1% in the assay on MDA-MB-231 breast; inactive: 17.3% with RXF 393 renal; inactive: 15.5% in the assay on SF-268 CNS; active: -62.1% in the assay with SF-295 CNS; inactive: 12.5% in the assay on SF-539 CNS; active: -23.9% with UACC-257 melanoma. Moreover, the growth with M14 melanoma is active: -17.7%.
For `CN(CCCl)CCCCCCCl`, the growth is inactive: 99.4% with NCI-H23 lung; inactive: 94.7% in the assay with NCI-H226 lung; inactive: 101% with NCI-H322M lung; inactive: 106% in the assay on HOP-62 NSCLC; inactive: 79% in the assay with NCI-H460 lung; inactive: 97% with HOP-92 NSCLC. The growth is inactive: 71.5% in the assay on NCI-H522 lung; inactive: 76.6% in the assay on A549/ATCC NSCLC; inactive: 100% with 786-0 renal; inactive: 98.4% with COLO 205 colon; inactive: 91.8% with DU-145 prostate; inactive: 99.9% in the assay on K-562 leukemia. For the same compound, the growth in the assay with MALME-3M melanoma is inactive: 95%; in the assay on MDA-MB-231 breast, inactive: 109%; in the assay on RXF 393 renal, inactive: 106%; in the assay with SF-268 CNS it was inactive: 89.2%; with SF-539 CNS, inactive: 98.6%; in the assay with UACC-257 melanoma, inactive: 97.2%. The growth in the assay on M14 melanoma is inactive: 97.4%.
Consider `CCOC(=O)CSc1c(N)c(C)nn1C.O=[N+]([O-])c1cc([N+](=O)[O-])c(O)c([N+](=O)[O-])c1`, for which the growth was inactive: 105% in the assay with NCI-H23 lung; inactive: 103% in the assay on NCI-H226 lung; inactive: 98.9% in the assay with NCI-H322M lung; inactive: 105% in the assay with HOP-62 NSCLC; inactive: 105% with NCI-H460 lung; inactive: 106% in the assay with HOP-92 NSCLC. Besides, the growth in the assay with NCI-H522 lung is inactive: 82.8%; with A549/ATCC NSCLC it was inactive: 97.3%; in the assay on 786-0 renal, inactive: 100%; in the assay with COLO 205 colon it was inactive: 113%; with DU-145 prostate, inactive: 107%; with K-562 leukemia, inactive: 100%. Besides, the growth was inactive: 101% in the assay on MALME-3M melanoma; inactive: 103% with MDA-MB-231 breast; inactive: 104% in the assay with SF-268 CNS; inactive: 99.2% with SF-539 CNS; inactive: 85% with UACC-257 melanoma; inactive: 106% in the assay on M14 melanoma.
For `O=[N+]([O-])c1cc([N+](=O)[O-])c(C(F)(F)F)c([N+](=O)[O-])c1O`, the growth in the assay on NCI-H23 lung was inactive: 96.6%; in the assay with NCI-H226 lung it was inactive: 87.5%; in the assay with NCI-H322M lung, inactive: 94.5%; in the assay with HOP-62 NSCLC it was inactive: 102%; in the assay with NCI-H460 lung, inactive: 107%; in the assay with HOP-92 NSCLC, inactive: 85.4%. The growth in the assay on NCI-H522 lung is inactive: 109%; in the assay on A549/ATCC NSCLC, inactive: 103%; with 786-0 renal, inactive: 97%; with COLO 205 colon, inactive: 114%; in the assay on DU-145 prostate, inactive: 101%; in the assay with K-562 leukemia, inactive: 101%. The growth with MALME-3M melanoma was inactive: 93.7%; in the assay with RXF 393 renal it was inactive: 98.2%; in the assay with SF-268 CNS, inactive: 95.7%; in the assay on SF-295 CNS it was inactive: 92.1%; in the assay on SF-539 CNS it was inactive: 92.8%; in the assay with UACC-257 melanoma, inactive: 95.6%. For the same compound, in the assay on M14 melanoma, the growth was inactive: 101%.
As for `O=[N+]([O-])c1cc([N+](=O)[O-])c(O)c([N+](=O)[O-])c1.c1ccnnc1`, the growth with NCI-H23 lung is inactive: 119%; in the assay on NCI-H226 lung it was inactive: 94.6%; with NCI-H322M lung, inactive: 106%; in the assay on HOP-62 NSCLC, inactive: 106%; in the assay on NCI-H460 lung it was inactive: 102%; in the assay on HOP-92 NSCLC, inactive: 114%. The growth in the assay on NCI-H522 lung is inactive: 77.7%; with A549/ATCC NSCLC, inactive: 101%; in the assay on 786-0 renal, inactive: 101%; with COLO 205 colon, inactive: 112%; in the assay with DU-145 prostate, inactive: 116%; in the assay with K-562 leukemia, inactive: 104%. In addition, the growth in the assay on MALME-3M melanoma was inactive: 99.6%; with MDA-MB-231 breast, inactive: 105%; in the assay on RXF 393 renal, inactive: 105%; with SF-268 CNS it was inactive: 107%; with SF-539 CNS, inactive: 91.8%; in the assay on UACC-257 melanoma it was inactive: 102%. The growth in the assay on M14 melanoma is inactive: 106%.
Regarding `CN(Cc1cccnc1)C(=O)COc1ccc(Cl)c(Cl)c1.O=[N+]([O-])c1cc([N+](=O)[O-])c(O)c([N+](=O)[O-])c1`, the growth is inactive: 98.2% in the assay with NCI-H23 lung; inactive: 109% in the assay with NCI-H322M lung; inactive: 103% in the assay on HOP-62 NSCLC; inactive: 108% in the assay with NCI-H460 lung; inactive: 83% in the assay on HOP-92 NSCLC; inactive: 89.5% in the assay with NCI-H522 lung. Also, the growth in the assay with A549/ATCC NSCLC is inactive: 91.9%; in the assay with 786-0 renal, inactive: 105%; with COLO 205 colon, inactive: 109%; with DU-145 prostate, inactive: 113%; in the assay on K-562 leukemia it was inactive: 96.6%; with MALME-3M melanoma, inactive: 99.3%. Also, the growth in the assay with MDA-MB-231 breast is inactive: 114%; with RXF 393 renal, inactive: 92.1%; in the assay with SF-268 CNS, inactive: 101%; with SF-295 CNS, inactive: 85.2%; in the assay with SF-539 CNS it was inactive: 98.6%; in the assay with UACC-257 melanoma it was inactive: 94.5%. Besides, the growth with M14 melanoma is inactive: 104%.
`O=[N+]([O-])c1cc([N+](=O)[O-])c(O)c([N+](=O)[O-])c1.c1ccc(Cc2ccncc2)cc1`: the growth in the assay on NCI-H23 lung is inactive: 106%; in the assay on NCI-H226 lung it was inactive: 91.7%; with NCI-H322M lung, inactive: 110%; in the assay on NCI-H460 lung it was inactive: 103%; in the assay on HOP-92 NSCLC, inactive: 79.4%; in the assay on NCI-H522 lung, inactive: 100%. Moreover, the growth in the assay on A549/ATCC NSCLC was inactive: 98.6%; in the assay with 786-0 renal it was inactive: 104%; in the assay with COLO 205 colon it was inactive: 102%; with DU-145 prostate, inactive: 108%; with K-562 leukemia it was inactive: 99%; in the assay on MALME-3M melanoma it was inactive: 114%. Also, the growth in the assay with MDA-MB-231 breast is inactive: 106%; in the assay with RXF 393 renal it was inactive: 100%; in the assay on SF-268 CNS, inactive: 95.8%; with SF-295 CNS it was inactive: 94.6%; with SF-539 CNS, inactive: 91.7%; in the assay on UACC-257 melanoma, inactive: 96.9%. For the same compound, the growth in the assay on M14 melanoma was inactive: 106%.

Source of the values: PubChem BioAssay (NCI).
